Target: Prostaglandin G/H synthase 1 (Homo sapiens, UniProt P23219)
Assay type: tissue-based, Blood

Chains of the proteins cited; added tags and fusions are not shown.
UniProt P23219, whole entry: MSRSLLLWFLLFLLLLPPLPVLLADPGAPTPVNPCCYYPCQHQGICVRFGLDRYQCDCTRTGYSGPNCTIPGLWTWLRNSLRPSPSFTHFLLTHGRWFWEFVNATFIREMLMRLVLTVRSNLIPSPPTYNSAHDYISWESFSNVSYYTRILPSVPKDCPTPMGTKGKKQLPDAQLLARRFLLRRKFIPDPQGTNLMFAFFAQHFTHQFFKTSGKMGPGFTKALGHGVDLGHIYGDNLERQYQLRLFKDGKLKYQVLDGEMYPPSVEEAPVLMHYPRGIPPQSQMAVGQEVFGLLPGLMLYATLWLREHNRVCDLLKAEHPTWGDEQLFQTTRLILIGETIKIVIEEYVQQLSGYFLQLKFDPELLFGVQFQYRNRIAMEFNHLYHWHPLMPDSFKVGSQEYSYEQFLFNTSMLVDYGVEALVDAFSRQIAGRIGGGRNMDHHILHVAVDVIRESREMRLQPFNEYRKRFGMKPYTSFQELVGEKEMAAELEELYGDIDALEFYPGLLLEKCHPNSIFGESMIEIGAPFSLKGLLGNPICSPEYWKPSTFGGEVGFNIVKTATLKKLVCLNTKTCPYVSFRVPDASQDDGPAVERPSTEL

CC1(C)OC(=O)C(Sc2ccccc2)=C1c1ccc(S(C)(=O)=O)cc1
IC50: 58 µM
